According to PubChem BioAssay AID463112 (Sanford-Burnham Center for Chemical Genomics, 2010):
This is a selection; strong and weak results do not stand in their true shares. Calls of active or inactive are those of the source. Rule as the data show it: active = activation above about 33%; inactive = the rest.

Assay: PERK-eIF2a-CHOP pathway stimulators, retested – cell-based, CHO-CHOP luciferase reporter, single concentration, confirmation (AID 463112);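 also: 0% = DMSO wells and 100% = tunicamycin 10 µg/mL wells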
Conditions: CHO-CHOP cells, CHOP-luciferase reporter luminescence; at 10 µM; active compounds read high; percent of tunicamycin response, DMSO as zero
Method in brief: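 Signal: Steady-Glo luciferase luminescence; Test system: CHO-CHOP luciferase reporter cell line; Control set: tunicamycin (high) and DMSO (low) controls; Compound: one concentration, 10 µM, in 0.5% DMSO; Schedule: 6 h compound exposure at 37 °C after overnight seeding.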

SMILES | activation
C[N+]1=C2C=CC=CC=C2SC12C([N+](=O)[O-])=CC([N+](=O)[O-])=C[C-]2[N+](=O)[O-] (configuration not stated) | inactive: -3.25%
CCN(CC)C(=S)SC(NC=O)C(Cl)(Cl)Cl (configuration not stated) | active: 107%
